The values below come from ChEMBL document CHEMBL4842359, “1,3-Diarylpyrazolyl-acylsulfonamides as Potent Anti-tuberculosis Agents Targeting Cell Wall Biosynthesis in Mycobacterium tuberculosis” (J Med Chem, 2021).

≈ marks a conversion by molar mass, not a printed value.

This data set is described as follows: physchem. Particulars: aqueous phosphate buffer, pH 7.4.

For orientation: thermodynamic solubility means solubility found after equilibrating the solid with the medium. `O=C1NC(=O)C(Cc2cn(-c3ccc(Cl)cc3)nc2-c2ccc(Cl)cc2)C(=O)N1` displayed a solubility (thermodynamic) of 200 µM (≈ 85.9 µg/mL).
